In patent US20160089341A1, “METHODS FOR TREATING AND PREVENTING STATUS EPILEPTICUS AND ORGANOPHOSPHATE POISONING” (published 2016):

How the values were obtained:
[1] = tested on: 6 Hz Psychomotor model seizures; conditions: cited from earlier work
[2] = tested on: Maximal Electroshock Model seizures; conditions: in vivo; cited from earlier work
[3] = tested on: Pilocarpine Model seizures; conditions: in vivo; cited from earlier work
[4] = tested on: seizures induced by the nerve agent soman; assay: halting seizures induced by the nerve agent soman in the rat; conditions: for Number of animals protected/number tested: 20 minutes after seizure onset, soman
[5] = tested on: seizures induced by pilocarpine; assay: rat pilocarpine model of status epilepticus: halting seizures; conditions: 65 mg/kg i.p.
[6] = tested on: seizures induced by pilocarpine; assay: seizure EEG activity in rat having seizures induced by pilocarpine; conditions: 65 mg/kg i.p., up to 8 hours, rat with pilocarpine-induced seizures

CC[C@@H](C(N)=O)N1CCCC1=O
halting seizures in the mouse 6 Hz Psychomotor model [1]: effective | anticonvulsant activity in the Maximal Electroshock Model (MES) [2]: does not have anticonvulsant activity | halting seizures in the Pilocarpine Model test [3]: Neither compound is effective

O=C1NC(=O)C(c2ccccc2)(c2ccccc2)N1
halting seizures in the mouse 6 Hz Psychomotor model [1]: poor activity | anticonvulsant activity in the Maximal Electroshock Model (MES) [2]: good anticonvulsant activity | halting seizures in the Pilocarpine Model test [3]: Neither compound is effective

CCC(C)c1cccc(C(C)CC)c1O (racemic)
Number of animals protected/number tested ([4]; 40 mg/kg i.p.): 0/6 | Number of animals protected/number tested ([4]; 50 mg/kg i.p.): 1/6 | Number of animals protected/number tested ([4]; 63 mg/kg i.p.): 1/6 | Number of animals protected/number tested ([4]; 79 mg/kg i.p.): 3/5 | Number of animals protected/number tested ([4]; 100 mg/kg i.p.): 2/5 | activity in inhibiting seizures caused by soman ([4]; administered 20 minutes after seizure onset): significant activity | number animals protected/number of animals treated ([5]; given 0 hour after onset of S3-5 seizures): 8/8 | number animals protected/number of animals treated ([5]; given 0 hour after onset of S3-5 seizures, listed as 2,6-Di-sec-butylphenol): completely protective | number animals protected/number of animals treated ([5]; given 0.5 hours after onset of S3-5 seizures): 8/8 | number animals protected/number of animals treated ([5]; given 0.5 hours after onset of S3-5 seizures, listed as 2,6-Di-sec-butylphenol): completely protective | change in power of EEG activity [6]: significantly reduced

CC(C)c1cccc(C(C)C)c1O
number animals protected/number of animals treated ([5]; given 0 hour after onset of S3-5 seizures, listed as propofol): 7 of 8 | number animals protected/number of animals treated ([5]; given 0.5 hours after onset of S3-5 seizures, listed as propofol): 6 of 8 | change in power of EEG activity [6]: did not cause a significant reduction
